By UniProt entry, the sequences of proteins in these tests, tags left out. Where a name states a change or a piece, a line headed by the entry shows the natural chain unless it says otherwise.
UniProt P41143, whole entry, looked up: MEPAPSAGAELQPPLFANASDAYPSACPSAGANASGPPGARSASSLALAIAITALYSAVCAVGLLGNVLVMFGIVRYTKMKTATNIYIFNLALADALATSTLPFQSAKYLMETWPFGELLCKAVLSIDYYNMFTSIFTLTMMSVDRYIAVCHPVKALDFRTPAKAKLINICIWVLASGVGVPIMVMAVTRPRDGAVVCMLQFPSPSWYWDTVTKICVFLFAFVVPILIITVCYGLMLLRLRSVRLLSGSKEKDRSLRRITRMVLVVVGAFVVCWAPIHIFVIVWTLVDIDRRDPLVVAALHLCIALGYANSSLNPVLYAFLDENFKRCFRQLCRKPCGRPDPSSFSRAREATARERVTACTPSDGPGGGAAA
UniProt P41145: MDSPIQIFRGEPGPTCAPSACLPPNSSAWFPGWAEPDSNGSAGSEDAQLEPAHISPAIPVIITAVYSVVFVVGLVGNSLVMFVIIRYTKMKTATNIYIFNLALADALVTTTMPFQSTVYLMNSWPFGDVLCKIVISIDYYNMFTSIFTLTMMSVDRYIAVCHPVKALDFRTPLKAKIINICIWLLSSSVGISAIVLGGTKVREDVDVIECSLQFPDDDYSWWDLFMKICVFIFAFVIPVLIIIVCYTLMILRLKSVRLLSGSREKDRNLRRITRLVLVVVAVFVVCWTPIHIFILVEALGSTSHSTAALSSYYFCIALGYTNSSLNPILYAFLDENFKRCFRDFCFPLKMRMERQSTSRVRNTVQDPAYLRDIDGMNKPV
UniProt P35372, whole entry, looked up: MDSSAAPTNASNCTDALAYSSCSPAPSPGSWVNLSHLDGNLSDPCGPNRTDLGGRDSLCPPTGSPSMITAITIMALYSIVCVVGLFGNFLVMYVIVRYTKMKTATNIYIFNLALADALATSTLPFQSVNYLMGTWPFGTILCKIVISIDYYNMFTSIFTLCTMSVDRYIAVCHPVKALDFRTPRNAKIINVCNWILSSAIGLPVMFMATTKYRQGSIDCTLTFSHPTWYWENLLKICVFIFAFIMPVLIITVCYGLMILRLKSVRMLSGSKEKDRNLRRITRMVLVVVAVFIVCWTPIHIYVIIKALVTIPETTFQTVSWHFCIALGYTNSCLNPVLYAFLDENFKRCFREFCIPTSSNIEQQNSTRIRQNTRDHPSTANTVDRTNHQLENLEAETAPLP

According to ChEMBL document CHEMBL1145560, “Use of receptor chimeras to identify small molecules with high affinity for the dynorphin A binding domain of the kappa opioid receptor” (Bioorg Med Chem Lett, 2008):

Experiments:
[1] = molecular target: Delta-type opioid receptor (Homo sapiens, UniProt P41143); test: Displacement of [3H]diprenorphine from human delta opioid receptor expressed in CHO-K1 cells
[2] = Displacement of [3H]diprenorphine from human kappa/mu opioid chimera 3 receptor
[3] = Displacement of [3H]diprenorphine from human kappa/mu opioid chimera 4 receptor
[4] = molecular target: T1, Kappa-type opioid receptor (Homo sapiens, UniProt P41145); test: Agonist activity at human kappa opioid receptor transfected in CHO cells by [35S]GTP-gamma-S binding assay
[5] = molecular target: T1, Kappa-type opioid receptor; test: Displacement of [3H]diprenorphine from human kappa opioid receptor expressed in CHO-K1 cells
Mu-type opioid receptor = Mu-type opioid receptor (Homo sapiens, UniProt P35372); details: cho-k1

| SMILES | Ki [1] [nM] | Ki [2] [nM] | Ki [3] [nM] | EC50 [4] [nM] | Ki [5] [nM] | Ki (Mu-type opioid receptor) [nM] |
| --- | --- | --- | --- | --- | --- | --- |
| CN(C(=O)Cc1ccc2c(c1)OCO2)[C@H](CN1CCCC1)c1ccccc1 | 580 | 220 | 68 | 0.43 | 0.7 | 450 |
| COc1ccc(CC(=O)N(C)[C@H](CN2CCCC2)c2ccccc2)cc1OC | 500 | 300 | 120 | 6 | – | > 1000 |
| CN(C(=O)Cc1ccc(Cl)c(Cl)c1)[C@H](CN1CCCC1)c1ccccc1 | – | 14 | 1 | – | – | – |
